# Experimental data as given in US8461183B2, “PPAR agonist compounds, preparation and uses” (Genfit, priority 2008, dated 2013).
# Sequences of proteins named here, by UniProt entry; tags and fusion partners are left off. Residues count along the entry.
# UniProt P37231, 238-503 limits assumed: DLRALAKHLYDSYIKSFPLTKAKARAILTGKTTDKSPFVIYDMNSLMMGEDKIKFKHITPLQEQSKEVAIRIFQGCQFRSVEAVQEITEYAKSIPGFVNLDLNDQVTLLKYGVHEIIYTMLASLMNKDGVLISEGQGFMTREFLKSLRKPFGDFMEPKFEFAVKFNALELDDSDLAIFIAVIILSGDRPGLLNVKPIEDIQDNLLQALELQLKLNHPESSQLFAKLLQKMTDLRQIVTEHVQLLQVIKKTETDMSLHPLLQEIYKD
# Experiments:
# hPPARδ = target: T1, hPPARδ (Homo sapiens, UniProt Q03181); experiment: Gal4-hPPARδ chimera transactivation (luciferase) in COS-7 cells; format: cell-based; details: relative to maximum activation obtained with GW501516, 24 hours
# T1 construct: corresponding to the DEF domains (structural elements of the promoter of the PPARs: D=hinge, EF=ligand fixation domain and AF2 fixation site); expressed in transfected cells; host or cells: COS-7 (monkey kidney fibroblasts)
# T1 sequence (Q03181 211-439 limits assumed): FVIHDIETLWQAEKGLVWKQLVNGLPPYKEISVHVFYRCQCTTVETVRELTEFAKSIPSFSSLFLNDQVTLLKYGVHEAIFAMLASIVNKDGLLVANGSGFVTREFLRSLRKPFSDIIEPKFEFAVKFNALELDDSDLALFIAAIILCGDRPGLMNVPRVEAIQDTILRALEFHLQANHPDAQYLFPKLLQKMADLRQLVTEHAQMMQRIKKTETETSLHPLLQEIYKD
# Description: (§1) Activation of PPARs is evaluated in vitro on a line of monkey kidney fibroblasts (COS-7) by measuring the transcriptional activity of chimeras consisting of the DNA binding domain of Gal4 transcription factor of yeast and of the ligand binding domain of the various PPARs of human origin (hPPAR). The compounds are tested at doses between 0.01 and 100 μM on chimeras Gal4-PPARα, γ, δ and EC50 is determined.
# (§2) The COS-7 cells are from ATCC and are cultivated in DMEM medium supplemented with 10% (vol/vol) of fetal calf serum, 1% of penicillin/streptomycin (Biochrom, AG), 1% of amino acids (Gibco) and 1% of sodium pyruvate (Gibco). The cells are incubated at 37° C. in a humid atmosphere containing 5% CO2.
# (§3) The plasmids Gal4(RE)_TkpGL3, pGal4-hPPARα, pGal4-hPPARγ, pGal4-hPPARδ and pGal4-φ are described in the literature (Raspe E et al., 1999). […]
# (§4) The adherent COS-7 cells are transfected with 40 μg of DNA per 225 cm^2 flask, with a pGal4-hPPAR/Gal4(RE)_TkpGL3 ratio of 1/10, in the presence of 10% of fetal calf serum. […] At the end of the experiment, the cells are lysed and the luciferase activity is determined using the Steady-Lite™ HTS (Perkin Elmer) according to the supplier's recommendations.
# (§5) The test data are summarized in Table 8-1 below, which presents, for each compound, the values of maximum activation (TOP %) and the EC50 values measured for each isoform of PPAR. […]
# hPPARγ = target: T2, hPPARγ (Homo sapiens, UniProt P37231); experiment: Gal4-hPPARγ chimera transactivation (luciferase) in COS-7 cells; format: cell-based; details: relative to maximum activation obtained with rosiglitazone, 24 hours
# T2 construct: corresponding to the DEF domains (structural elements of the promoter of the PPARs: D=hinge, EF=ligand fixation domain and AF2 fixation site); expressed in transfected cells; host or cells: COS-7 (monkey kidney fibroblasts)
# Description: as §1, §2, §3, §4, §5
substance,measurement,setting,value
2-(4-(((2-methoxy-6-furylpyridin-3-yl)methyl)amino)phenylthio)ethanoic acid [Cpd 30],PPARδ TOP % (maximum activation),hPPARδ,1.13%
same,PPARγ TOP % (maximum activation),hPPARγ,7.28%
